Literature values in patent US20060009393A1, “Immunogenic epitopes for fibroblast growth factors 5 (FGF-5)” (The Government of the U.S.A as represented by the Secretary …, priority 1999, published 2006).

System: metastatic disease (renal cell carcinoma)
Conditions: cited from earlier work

IL-2: high-dose bolus interleukin 2 immunotherapy
chance of being alive and free of disease in complete responders (median follow-up of over nine years): 80% | fraction of regressions that are complete responses (metastatic RCC): about one third | patients with regression (metastatic RCC): 15-20%
